Like-named read-outs stand apart in the source and are kept apart here.
Assays:
A431 cells = test: In vitro cytotoxicity analysis (Crystal Violet), A431
Description: (§1) Plates were read at 570 nm. Data was analyzed using GraphPad Prism 6.
(§2) All ADCs were purified and characterized using SEC-HPLC for aggregation analysis, HIC-HPLC for DAR analysis, and cell-based assay with A431-A3 (MSLN^hi), A431 (MSLN^lo), and OVCAR3 (MSLN^hi) cell lines.

OVCAR3 cells = test: In vitro cytotoxicity analysis (Crystal Violet), OVCAR3
Description: as §1, §2

[1] = test system: A3 (A431 stably transfected with human mesothelin) cells; test: In vitro cytotoxicity analysis (Crystal Violet), A3; format: cell-based
Description: as §1

HEC-251 cells = test: In vitro cytotoxicity analysis (Crystal Violet), HEC-251; format: cell-based, human
Description: as §1

H226 cells = test: In vitro cytotoxicity analysis (Crystal Violet), H226; format: cell-based, human
Description: as §1

cryptophycin
EC50 (A431 cells; read-out: Cell-Based Cytotoxicity Assay EC50 (nM) A431, Table 19, payloads): 0.8 nM
EC50 (A431 cells; read-out: Cell-Based Cytotoxicity Assay, EC50 (nM) A431, Table 18, 5 days): 0.8 nM
EC50 (OVCAR3 cells; read-out: Cell-Based Cytotoxicity Assay EC50 (nM) OVCAR3, Table 19, payloads): 0.24 nM
EC50 (OVCAR3 cells; read-out: Cell-Based Cytotoxicity Assay, EC50 (nM) OVCAR3, Table 18, 5 days): 0.24 nM
EC50 ([1]; Table 18, 5 days, read-out: Cell-Based Cytotoxicity Assay, EC50 (nM) A3): 1.01 nM
EC50 ([1]; Table 19, payloads, read-out: Cell-Based Cytotoxicity Assay EC50 (nM) A3): 1.01 nM
EC50 (HEC-251 cells; Table 18, 5 days, read-out: Cell-Based Cytotoxicity Assay, EC50 (nM) HEC-251): 0.43 nM
EC50 (HEC-251 cells; Table 19, payloads, read-out: Cell-Based Cytotoxicity Assay EC50 (nM) HEC-251): 0.43 nM
EC50 (H226 cells; Table 18, 5 days, read-out: Cell-Based Cytotoxicity Assay, EC50 (nM) H226): 1.94 nM
EC50 (H226 cells; Table 19, payloads, read-out: Cell-Based Cytotoxicity Assay EC50 (nM) H226): 1.94 nM

— patent US12564641B2, “Eribulin antibody-drug conjugates and methods of use” (EISAI R&D MANAGEMENT CO., LTD., priority 2019, dated 2026)
